{
  "source": "paper PMC2883962",
  "about": "“Prostate apoptosis response protein 4 sensitizes human colon cancer cells to chemotherapeutic 5-FU through mediation of an NFκB and microRNA network” (Molecular Cancer, 2010)",
  "binders": {"B1": {"name": "NFκB (subunits p65 and p50) (complex, human (endogenous in HT29 and SW480))", "chain 1": "MDELFPLIFPAEPAQASGPYVEIIEQPKQRGMRFRYKCEGRSAGSIPGERSTDTTKTHPTIKINGYTGPGTVRISLVTKDPPHRPHPHELVGKDCRDGFYEAELCPDRCIHSFQNLGIQCVKKRDLEQAISQRIQTNNNPFQVPIEEQRGDYDLNAVRLCFQVTVRDPSGRPLRLPPVLSHPIFDNRAPNTAELKICRVNRNSGSCLGGDEIFLLCDKVQKEDIEVYFTGPGWEARGSFSQADVHRQVAIVFRTPPYADPSLQAPVRVSMQLRRPSDRELSEPMEFQYLPDTDDRHRIEEKRKRTYETFKSIMKKSPFSGPTDPRPPPRRIAVPSRSSASVPKPAPQPYPFTSSLSTINYDEFPTMVFPSGQISQASALAPAPPQVLPQAPAPAPAPAMVSALAQAPAPVPVLAPGPPQAVAPPAPKPTQAGEGTLSEALLQLQFDDEDLGALLGNSTDPAVFTDLASVDNSEFQQLLNQGIPVAPHTTEPMLMEYPEAITRLVTGAQRPPDPAPAPLGAPGLPNGLLSGDEDFSSIADMDFSALLSQISS", "chain 2": "MAEDDPYLGRPEQMFHLDPSLTHTIFNPEVFQPQMALPTDGPYLQILEQPKQRGFRFRYVCEGPSHGGLPGASSEKNKKSYPQVKICNYVGPAKVIVQLVTNGKNIHLHAHSLVGKHCEDGICTVTAGPKDMVVGFANLGILHVTKKKVFETLEARMTEACIRGYNPGLLVHPDLAYLQAEGGGDRQLGDREKELIRQAALQQTKEMDLSVVRLMFTAFLPDSTGSFTRRLEPVVSDAIYDSKAPNASNLKIVRMDRTAGCVTGGEEIYLLCDKVQKDDIQIRFYEEEENGGVWEGFGDFSPTDVHRQFAIVFKTPKYKDINITKPASVFVQLRRKSDLETSEPKPFLYYPEIKDKEEVQRKRQKLMPNFSDSFGGGSGAGAGGGGMFGSGGGGGGTGSTGPGYSFPHYGFPTYGGITFHPGTTKSNAGMKHG", "notes": "NFκB p65 subunit, endogenous in human colon cancer cells; NFκB p50 subunit, the processed product of the p105 precursor, endogenous in human colon cancer cells; also called NFκB p65; NFκB p50; source: endogenous, lysates of HT29 and SW480 cells; nuclear and cytoplasmic fractions of HT29 transfectants"}},
  "biological_target": "T1, prostate apoptosis response protein 4 (Par-4), endogenous in native colon cancer cells (human (endogenous in HT29 and SW480), UniProt Q96IZ0 1-340)",
  "T1 construct": "prostate apoptosis response protein 4 (Par-4), endogenous in the human colon cancer cell lines HT29 and SW480; Immunoprecipitated with a Par-4 antibody (Santa Cruz); source: endogenous, lysates of native HT29 and SW480 cells",
  "T1 sequence (looked up)": "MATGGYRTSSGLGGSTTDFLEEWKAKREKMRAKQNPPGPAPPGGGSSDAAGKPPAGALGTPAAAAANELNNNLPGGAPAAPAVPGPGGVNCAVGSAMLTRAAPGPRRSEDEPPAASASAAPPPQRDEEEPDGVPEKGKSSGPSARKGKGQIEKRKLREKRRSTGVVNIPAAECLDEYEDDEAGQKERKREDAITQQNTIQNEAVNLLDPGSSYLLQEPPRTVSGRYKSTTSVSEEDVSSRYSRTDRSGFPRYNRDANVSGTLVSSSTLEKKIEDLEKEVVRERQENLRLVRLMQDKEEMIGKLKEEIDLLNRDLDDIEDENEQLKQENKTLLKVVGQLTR",
  "assay": "co-IP; Par-4 immunoprecipitated from lysates of native HT29 cells treated for 24 h with vehicle or 12.5 or 25 μM ISC-4 (AKT inhibitor); immunoprecipitates immunoblotted with PKA, NFκB p50 and 14-3-3 antibodies",
  "details": "partners not purified",
  "data": [
    {"binder": "B1", "values": [
      {"measurement": "fold increase of Par-4 binding with ISC-4 against vehicle", "value": 4, "unit": "fold"}
    ]}
  ]
}
